From publication PMC5805707, “The anti-mycobacterial activity of the cytochrome bcc inhibitor Q203 can be enhanced by small-molecule inhibition of cytochrome bd” (Scientific Reports, 2018) come the findings set out here.

In this assay the target is T1, cytochrome bcc complex (Mycolicibacterium smegmatis, UniProt A0R052).
T1 construct: gene MSMEG_4263; native complex in inverted membrane vesicles
The experiment in a line: NADH-driven oxygen consumption of inverted membrane vesicles (Clark electrode); effect lost in bcc-KO and […] maximal in bd-KO. The class given is biochemical.

The compound `CCc1nc2ccc(Cl)cn2c1C(=O)NCc1ccc(N2CCC(c3ccc(OC(F)(F)F)cc3)CC2)cc1` [Q203] showed a 50% inhibitory concentration (IC50) of about 20 nM.

The term IC50 denotes the concentration that inhibits the measured activity by half.
